## AlphaSeq binding of Ab-14 light chain variants to a spike HR2 peptide

The target is the same throughout: PDVDLGDISGINAS, from the HR2 region of SARS-CoV-2 spike.

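The starting antibody came from a phage panning campaign against this peptide. The library (AAYL50) carries one to three amino acid substitutions per variant, with no insertions or deletions. Affinity was read by AlphaSeq, a pooled yeast mating assay with surface-displayed partners. Binding brings cells together so that they mate, and sequencing counts the barcode pairs among the diploids. A regression on co-assayed BCL2-family reference pairs converts the normalised counts of each replicate to an apparent Kd. Mating was done three times.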

Ab-14 is the parent antibody, in scFv form: VH, then the linker GGGGSGGGGSGGGGS, then VL. The heavy chain is unchanged in all variants.
VH: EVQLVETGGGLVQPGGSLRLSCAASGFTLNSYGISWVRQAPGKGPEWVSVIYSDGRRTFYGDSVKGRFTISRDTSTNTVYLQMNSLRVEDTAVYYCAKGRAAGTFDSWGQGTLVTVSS
VL: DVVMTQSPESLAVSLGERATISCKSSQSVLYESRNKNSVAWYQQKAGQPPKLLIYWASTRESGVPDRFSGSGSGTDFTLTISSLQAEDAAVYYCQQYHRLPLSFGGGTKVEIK

Positions count from residue 1 of the parent VL; E61W puts W in place of E.
The read-out is the apparent dissociation constant on a log10 scale (nM): the lower, the stronger.
"ND" means that the variant was in the library but no mating with the target was seen in that replicate; the authors take this as a sign of poor binding, and no number exists.
Background: pairings of library AAYL50 with three empty control strains gave a value in 18% of cases (median 4.19, 5th percentile 2.99). Values in that range, when seen in few replicates, are hard to tell from nonspecific mating. For each scFv, signals with the empty controls are counted beside the result, with their mean in brackets.

{"changes": "E61W L102A S103H", "replicates, log10 nM": "ND / ND / ND", "empty controls": "1 of 9 (3.68)"}
{"changes": "L100E P101S S103H", "replicates, log10 nM": "ND / ND / ND", "empty controls": "0 of 9"}
{"changes": "N37F Q95V Q96H", "replicates, log10 nM": "ND / ND / ND", "empty controls": "0 of 9"}
{"changes": "S38I S58C L100E", "replicates, log10 nM": "3.78 / 3.80 / ND", "empty controls": "1 of 9 (3.59)"}
{"changes": "S25R E61V Q96M", "replicates, log10 nM": "5.63 / 3.54 / 3.67", "empty controls": "7 of 9 (4.28)"}
{"changes": "S33F S38V Q95T", "replicates, log10 nM": "ND / ND / ND", "empty controls": "4 of 9 (4.07)"}
{"changes": "N35D T59P Q96V", "replicates, log10 nM": "ND / ND / ND", "empty controls": "0 of 9"}
{"changes": "L30G S38W T59H", "replicates, log10 nM": "4.03 / 3.71 / 4.61", "empty controls": "4 of 9 (4.45)"}
{"changes": "N35W N37K W56A", "replicates, log10 nM": "0.36 / 0.52 / 0.22", "empty controls": "2 of 9 (3.26)"}
{"changes": "S26V V29E A40K", "replicates, log10 nM": "3.84 / 4.17 / ND", "empty controls": "1 of 9 (3.46)"}
{"changes": "R34H A57L S62C", "replicates, log10 nM": "ND / ND / ND", "empty controls": "2 of 9 (3.26)"}
{"changes": "Y31P H98A L102H", "replicates, log10 nM": "0.92 / 0.88 / 1.26", "empty controls": "0 of 9"}
{"changes": "Q27A A57P Q95F", "replicates, log10 nM": "4.78 / ND / ND", "empty controls": "2 of 9 (3.23)"}
{"changes": "R60K Q96K Y97P", "replicates, log10 nM": "ND / 2.99 / ND", "empty controls": "0 of 9"}
{"changes": "V29S A40E S62V", "replicates, log10 nM": "ND / 4.67 / ND", "empty controls": "2 of 9 (3.96)"}
{"changes": "Q27P L30A Q95W", "replicates, log10 nM": "3.21 / ND / ND", "empty controls": "0 of 9"}
{"changes": "S58G", "replicates, log10 nM": "1.01 / 1.39 / 1.45", "empty controls": "0 of 9"}
{"changes": "K24Y N35V L102R", "replicates, log10 nM": "ND / ND / ND", "empty controls": "0 of 9"}
{"changes": "A40R Q96S", "replicates, log10 nM": "4.76 / ND / ND", "empty controls": "1 of 9 (4.58)"}
{"changes": "K24W S26P L100G", "replicates, log10 nM": "ND / ND / ND", "empty controls": "0 of 9"}
{"changes": "S58L H98F R99A", "replicates, log10 nM": "3.30 / 2.24 / 3.19", "empty controls": "1 of 9 (3.69)"}
{"changes": "Q27S N35Y W56V", "replicates, log10 nM": "3.31 / ND / 3.17", "empty controls": "1 of 9 (3.11)"}
{"changes": "Q27E E32Q S58T", "replicates, log10 nM": "0.32 / 0.59 / 0.51", "empty controls": "0 of 9"}

Repeated from above, the 2 best binders with a signal in all replicates:

changes	replicates, log10 nM	empty controls
N35W N37K W56A	0.36 / 0.52 / 0.22	2 of 9 (3.26)
Q27E E32Q S58T	0.32 / 0.59 / 0.51	0 of 9

Parent in this assay: reference entry 0.65, copy in this library 1.68.

Values reported by Engelhart et al. 2022, doi:10.1038/s41597-022-01779-4 (FLAb copy).